{
  "sequences": {"note": "Amino acid sequences for entries named in this document (tags omitted).", "UniProt Q01959, whole entry": "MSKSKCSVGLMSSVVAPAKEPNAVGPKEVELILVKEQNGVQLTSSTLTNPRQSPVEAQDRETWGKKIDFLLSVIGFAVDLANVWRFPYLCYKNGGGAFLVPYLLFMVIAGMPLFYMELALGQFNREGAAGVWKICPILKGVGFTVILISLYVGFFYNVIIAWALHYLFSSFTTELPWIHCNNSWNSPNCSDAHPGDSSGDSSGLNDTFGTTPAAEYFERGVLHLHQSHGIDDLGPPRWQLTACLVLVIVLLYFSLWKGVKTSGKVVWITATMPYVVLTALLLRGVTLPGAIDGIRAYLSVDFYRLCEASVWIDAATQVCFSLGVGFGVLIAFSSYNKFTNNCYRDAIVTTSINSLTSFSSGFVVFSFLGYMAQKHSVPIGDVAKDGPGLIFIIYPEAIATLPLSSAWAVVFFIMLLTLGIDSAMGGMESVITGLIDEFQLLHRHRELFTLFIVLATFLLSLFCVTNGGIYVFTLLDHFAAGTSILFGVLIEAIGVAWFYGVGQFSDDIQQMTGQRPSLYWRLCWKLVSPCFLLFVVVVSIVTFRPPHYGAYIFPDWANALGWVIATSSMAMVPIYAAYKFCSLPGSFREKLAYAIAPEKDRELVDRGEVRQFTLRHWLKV"},
  "source": "PubChem BioAssay AID449768",
  "about": "(Vanderbilt High Throughput Screening Facility, 2010)",
  "note": "This is a selection; strong and weak results do not stand in their true shares. Some structures show a salt or complex split into parts, the way the source records it. Activity calls are given as the source filed them.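 How the source made its calls: active means Z score or B-score, a plate-position-corrected score, falls beyond the plate's 99.7% confidence bounds, in either direction; inactive means both scores lie inside the 99.7% bounds.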",
  "data": [
    {"target": "Sodium-dependent dopamine transporter (Homo sapiens) (UniProt Q01959)", "assay": "modulators of human DAT uptake with cocaine – cell-based, LLC-PK1 hDAT, [14C]-dopamine uptake, MLSMR, cocaine antagonist project, primary screen (AID 449768);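 further: scored against the spread of the other compound wells on the same plate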", "conditions": "LLC-PK1 hDAT cells, [14C]-dopamine uptake with cocaine IC80; at 10 µM; actives deviate in either direction", "values": [
      {"smiles": "Cc1cc(C)cc(OP(C)(=O)Nc2ccc(C)cc2C)c1", "note": "(centres undefined)", "B-score": "inactive: 1.48"},
      {"smiles": "Cc1ccc(C)c(NP(C)(=O)Oc2ccccc2)c1", "note": "(centres undefined)", "B-score": "inactive: -0.0529"},
      {"smiles": "Cc1cc(C)cc(OP(C)(=O)Nc2ccccn2)c1", "note": "(centres undefined)", "B-score": "inactive: -0.015"},
      {"smiles": "COc1ccccc1OP(C)(=O)Nc1c(C)cccc1C", "note": "(centres undefined)", "B-score": "inactive: 0.00731"},
      {"smiles": "Cc1nc2ccc3ccccc3c2s1.O=[N+]([O-])c1cc([N+](=O)[O-])c(O)c([N+](=O)[O-])c1", "B-score": "inactive: -1.32"},
      {"smiles": "CP(=O)(NC(=O)Nc1ccccc1)Oc1ccccc1", "note": "(centres undefined)", "B-score": "inactive: -0.0429"},
      {"smiles": "CCOP(C)(=S)SCC(=O)NC(C)C(=O)O", "note": "(centres undefined)", "B-score": "inactive: -0.157"},
      {"smiles": "CP(=O)(Nc1ccccn1)Oc1ccc(Cl)cc1", "note": "(centres undefined)", "B-score": "inactive: -0.729"},
      {"smiles": "CP(=S)(Nn1cnnc1)Oc1ccccc1", "note": "(centres undefined)", "B-score": "inactive: -0.18"},
      {"smiles": "Cc1ccc(NP(C)(=O)Oc2ccccc2)c(C)c1", "note": "(centres undefined)", "B-score": "inactive: 1.1"},
      {"smiles": "COc1ccccc1OP(C)(=O)Nc1ccc(C)cc1", "note": "(centres undefined)", "B-score": "inactive: 0.221"},
      {"smiles": "COc1ccc(OP(C)(=O)Nc2ccccn2)cc1", "note": "(centres undefined)", "B-score": "inactive: -0.142"},
      {"smiles": "CN(C)CCOC(=O)C(O)(c1ccccc1)C1CCCC1", "note": "(centres undefined)", "B-score": "inactive: -1.38"},
      {"smiles": "Cc1c(NP(C)(=O)Oc2ccc(C(C)C)cc2)c(=O)n(-c2ccccc2)n1C", "note": "(centres undefined)", "B-score": "inactive: -0.264"},
      {"smiles": "COc1ccccc1OP(C)(=O)Nc1ccc(C)cc1C", "note": "(centres undefined)", "B-score": "inactive: 0.0444"},
      {"smiles": "CP(=O)(Nc1ccccn1)Oc1ccccc1", "note": "(centres undefined)", "B-score": "inactive: -0.00788"},
      {"smiles": "CCc1ccc(OP(C)(=O)O)cc1", "B-score": "inactive: -0.194"},
      {"smiles": "COc1ccccc1OP(C)(=O)Nc1ccc(C)c(C)c1", "note": "(centres undefined)", "B-score": "inactive: 0.899"},
      {"smiles": "Cc1nc2ccc3ccccc3c2o1.O=[N+]([O-])c1cc([N+](=O)[O-])c(O)c([N+](=O)[O-])c1", "B-score": "inactive: -0.639"},
      {"smiles": "CP(=O)(OC12CC3CC(CC(C3)C1)C2)OC12CC3CC(CC(C3)C1)C2", "B-score": "inactive: -0.573"},
      {"smiles": "CCN(CC)CC(O)COC(=O)C(O)(c1ccccc1)C1CCCCC1", "note": "(centres undefined)", "B-score": "inactive: -1.43"},
      {"smiles": "COc1ccccc1OP(C)(=O)Nc1c(C)n(C)n(-c2ccccc2)c1=O", "note": "(centres undefined)", "B-score": "inactive: -0.0101"},
      {"smiles": "CP(=O)(Oc1ccccc1)N1CCOC1=O", "note": "(centres undefined)", "B-score": "inactive: 0.418"},
      {"smiles": "CC(C)(C)c1ccc(OP(C)(=O)O)cc1", "B-score": "inactive: -0.0118"},
      {"smiles": "CP(=O)(Nc1ccc(Cl)cc1)Oc1ccc(F)cc1", "note": "(centres undefined)", "B-score": "inactive: -0.244"},
      {"smiles": "CCOP(C)(=S)SCC(=O)NC(C)(CC)C(=O)O", "note": "(centres undefined)", "B-score": "inactive: -1.19"},
      {"smiles": "CP(=O)(Nc1ccc2c(c1)OCCO2)Oc1ccccc1", "note": "(centres undefined)", "B-score": "active: -2.08"},
      {"smiles": "Cc1ccccc1NP(C)(=O)Nc1ccccc1C", "B-score": "inactive: -0.113"},
      {"smiles": "COc1ccc(OP(C)(=O)Nc2cccc(Br)c2)cc1", "note": "(centres undefined)", "B-score": "inactive: -0.649"},
      {"smiles": "CN(C)CCOC(=O)C(O)(c1ccccc1)C1CCCCC1", "note": "(centres undefined)", "B-score": "inactive: -0.065"},
      {"smiles": "CCN(CC)CCCOC(=O)C(O)(c1ccccc1)C1CCCCC1", "note": "(centres undefined)", "B-score": "inactive: -1.38"},
      {"smiles": "CP(=O)(Nc1ccccc1)Oc1ccc(F)cc1", "note": "(centres undefined)", "B-score": "inactive: -0.0476"},
      {"smiles": "CP(=O)(Nc1ccccc1F)Oc1ccccc1", "note": "(centres undefined)", "B-score": "inactive: -1.2"},
      {"smiles": "COc1ccc2c(c1O)-c1c(O)c(OC)cc3c1[C@H](C2)[N+](C)(C)CC3.O=[N+]([O-])c1cc([N+](=O)[O-])c([O-])c([N+](=O)[O-])c1[O-]", "B-score": "inactive: -0.151"}
    ]}
  ]
}
